Source: article PMC7343696 (2020)
Structures can show the parent of a compound that is named as a salt. Where two headings read alike, the source gives them in different places. Marks after values point to notes of the source that are not given here.

The chains behind the UniProt entries cited, without tags or fusion partners.
UniProt P23975, whole entry: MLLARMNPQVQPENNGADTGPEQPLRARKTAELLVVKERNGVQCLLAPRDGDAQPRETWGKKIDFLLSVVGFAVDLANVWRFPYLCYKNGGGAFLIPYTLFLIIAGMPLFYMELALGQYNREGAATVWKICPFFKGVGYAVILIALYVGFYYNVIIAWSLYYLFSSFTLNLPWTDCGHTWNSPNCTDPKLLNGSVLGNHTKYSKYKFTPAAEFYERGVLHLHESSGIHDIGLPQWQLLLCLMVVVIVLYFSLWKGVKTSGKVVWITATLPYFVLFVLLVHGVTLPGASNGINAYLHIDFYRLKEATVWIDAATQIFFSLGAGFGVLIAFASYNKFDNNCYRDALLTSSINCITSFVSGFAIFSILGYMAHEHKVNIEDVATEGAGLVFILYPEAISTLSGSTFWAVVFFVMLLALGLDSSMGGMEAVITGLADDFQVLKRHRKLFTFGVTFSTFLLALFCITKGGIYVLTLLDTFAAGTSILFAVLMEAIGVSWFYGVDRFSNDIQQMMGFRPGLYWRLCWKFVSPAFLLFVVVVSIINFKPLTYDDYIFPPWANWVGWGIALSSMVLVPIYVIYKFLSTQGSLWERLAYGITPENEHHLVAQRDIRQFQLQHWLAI

Legend:
[1] = target: human SK-N-SH neuroblastoma cells (uptake via NET) (Homo sapiens, UniProt P23975); test: [125I]MIBG uptake inhibition in cultured SK-N-SH neuroblastoma cells; assay type: cell-based
[2] = system: 5HT uptake in (fore) brain or hypothalamic synaptosomes; conditions: rats, oral, assay type III; ref (4); cited from earlier work
[3] = system: 5HT uptake in (fore) brain or hypothalamic synaptosomes; conditions: mice, i.p., assay type III; ref (5); cited from earlier work

`CN(C)CCCN1c2ccccc2CCc2ccccc21` showed an IC50 [1] of 82 nM.

With `CN(C)CCCC1(c2ccc(F)cc2)OCc2cc(C#N)ccc21` (stereo not shown) [Citalopram, citalopram-HBr] the “Effect on MIBG uptake in SK-N-SH neuroblastoma cells at one concentration (in words)” value ([1]; inhibitor 10^−7 M) was “negligible effect”.

For `Fc1ccc([C@@H]2CCNC[C@H]2COc2ccc3c(c2)OCO3)cc1` [Paroxetine, paroxetine-HCl], the “50 % effective dose” value [2] is given as 1.9^c mg/kg and the “50 % effective dose” value [3] is given as 1 - 10^c mg/kg.
